Positions count from the first letter of the chain named. In names and notes the source's numbering stands.
T1: mouse big-ET-1 (mouse)
T1 construct: also called mBig-ET-1
T1 peptide: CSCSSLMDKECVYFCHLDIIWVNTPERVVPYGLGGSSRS

T2: human big-endothelin-1 (big-ET-1) (human)
T2 construct: 38 amino acid peptide; also called human big-ET-1; hBig-ET-1
T2 peptide: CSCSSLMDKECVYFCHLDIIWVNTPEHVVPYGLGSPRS

B1: H4H6338P (antibody, V domains shown)
VH: EVQLVESGGGLVQPGGSLRLSCAASGFAFSSYAMTWVRQTPGKGLEWVSSISGSGGSTYYADSVKGRFTISRDNSKNTLYLQMNSLRAEDTAVYYCAKARTGTHAFDIWGQGTMVTVSS
VL: not shown
notes: Human IgG4 Fc (prefix H4H)
B2: H4H6343P (antibody, V domains shown)
VH: B1 VH with V5L, A28T, T35S, T40A, S50A, G56V, S57G, A97P
VL: not shown
notes: Human IgG4 Fc (prefix H4H)

Tests used:
mouse big-ET-1 [1] = biological target: T1, mouse big-ET-1; experiment: SPR (Biacore T200), 37 C, mAb capture, peptide analyte
Method: (§1) Measurements were conducted on a T200 Biacore instrument (Biacore Life Sciences division of GE Healthcare, Piscataway, N.J.). The Biacore sensor surface was derivatized with a rabbit anti-mouse for hybridoma capture (prefix H1M or H2M) or a mouse anti-human Fc surface for human IgG formatted antibodies (prefix H4H). […] Peptide binding was monitored for 3 min while dissociation of mAb-bound peptide was monitored for 4 min in HBST running buffer (0.01 M HEPES pH 7.4, 0.15 M NaCl, 3 mM EDTA, 0.005% v/v Surfactant P20). Kinetic association (kₐ) and dissociation (kd) rate constants were determined by processing and fitting the data to a 1:1 binding model using Scrubber 2.0 curve fitting software.

[2] = biological target: T2, human big-endothelin-1 (big-ET-1); experiment: as above
Method: as §1

mouse big-ET-1 [3] = biological target: T1, mouse big-ET-1; experiment: cell-based or functional assay
[4] = biological target: T2, human big-endothelin-1 (big-ET-1); experiment: cell-based or functional assay

Row | Binder | Kd (mouse big-ET-1 [1]) [nM] | Kd [2] [nM] | Blocking IC50(M), 20 nM mBig-ET-1 + 5 nM mECE1; 293/ETaR/NFAT-Luc luciferase (mouse big-ET-1 [3]) [M] | Blocking IC50(M), 10 nM hBig-ET-1 + 3 nM hECE1; 293/ETaR/NFAT-Luc luciferase [4] [M]
1 | B1 | 4660 | 265 | 8.9e-09 | 2.8e-08
2 | B2 | 25.2 | 11.2 | 8.2e-10 | 1.2e-09
